The entries are a selection whose mix differs from that of the whole data set. Activity calls are given as the source filed them.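 Rule for the calls: active = activation above the run cutoff, the mean activation of all test compounds plus 3 SD (cut at about 40% in these data); inactive = the rest.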
Experiment: nonselective calcium activators in parental CHO-K1 cells, primary screen, counter-screen for M1 PAM project, cell-based, Fluo-8 calcium fluorescence, full deck, 1536-well (AID 602247);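 note: peak over basal fluorescence ratio in a 140 s read after ATP addition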
Conditions: parental CHO-K1, ATP EC20, Fluo-8 calcium fluorescence; at 3 µM; hits give high values; 0% at ATP EC20, 100% at ATP max

| Structure (SMILES) | activation |
| --- | --- |
| O=C(NCC1(N2CCCCC2)CCCCC1)c1ccc(OC(F)F)cc1 | inactive: 21.9% |
| CC(C)(C)n1nnnc1C(c1ccccc1OC(F)(F)F)N1CCC(n2c(=O)[nH]c3ccccc32)CC1 (stereo not drawn) | inactive: 35.6% |
| N#CC1(Nc2ccccc2)CCN(CCc2ccccc2)CC1 | inactive: 22.7% |
| O=c1[nH]c2ccccc2n1C1CCN(C(c2ccccc2OC(F)(F)F)c2nnnn2C2CCCC2)CC1 (stereo not drawn) | inactive: 0.68% |
| CCN1CCC(Nc2ccc(Cl)cc2)CC1 | inactive: 0.66% |
| CSc1ccc(C(=O)NCC2(N3CCOCC3)CCCCC2)cc1 | inactive: -0.63% |
| O=C(NCC1(N2CCCCC2)CCCCC1)c1cccc([N+](=O)[O-])c1 | inactive: 23.2% |
| O=C(NCC1(N2CCCCC2)CCCCC1)c1cccc(C(F)(F)F)c1 | inactive: 16.7% |
| COc1cc(C(=O)NCC2(N3CCCCC3)CCCCC2)ccc1OC(F)F | inactive: 16.9% |
| O=C(NCC1(N2CCOCC2)CCCCC1)c1cc(=O)[nH]c2ccccc12 | inactive: 14.1% |
| CCCCn1nnnc1C(c1cccc2ccccc12)N1CCC(n2c(=O)[nH]c3ccccc32)CC1 (stereo not drawn) | inactive: 38.6% |
| CN1CCN(CCOC(=O)C(O)(c2ccccc2)c2ccccc2)CC1 | inactive: 7.85% |
| COc1ccc(NC2CCN(C(=O)OC(C)(C)C)CC2)cc1 | inactive: 13.1% |
| CC(C)c1ccc(C(=O)NCC2(N3CCOCC3)CCCCC2)cc1 | inactive: 5.36% |
| CC(C)c1ccc(NC2CCN(C(=O)OC(C)(C)C)CC2)cc1 | inactive: 1.12% |
| CCCCn1nnnc1C(c1ccccc1OC(F)(F)F)N1CCC(n2c(=O)[nH]c3ccccc32)CC1 (stereo not drawn) | inactive: 36.3% |
| CN(C)c1cccc(C(=O)NCC2(N3CCCCC3)CCCCC2)c1 | inactive: -10.3% |
| COc1ccc(CN(CCCl)CCCl)cc1Cl | inactive: 25% |
| CCC(c1nnnn1C(C)(C)C)N1CCC(n2c(=O)[nH]c3ccccc32)CC1 (stereo not drawn) | inactive: 9.45% |
| O=C(NCC1(N2CCOCC2)CCCCC1)c1cc(F)c(F)cc1Cl | inactive: 3.32% |
| COc1cc(OC)c(C(=O)NCC2(N(C)C)CCCCC2)cc1OC | inactive: 13.5% |
| CCCCn1nnnc1C(c1ccnc2ccccc12)N1CCC(n2c(=O)[nH]c3ccccc32)CC1 (stereo not drawn) | inactive: 19.8% |

| Structure (SMILES) | activation |
| --- | --- |
| O=C(NCC1(N2CCCCC2)CCCCC1)c1cncc(Br)c1 | inactive: 13.9% |
| CN1CCC(Nc2cccc(F)c2)CC1 | inactive: 12.6% |
| COc1ccc(C(c2nnnn2C2CCCC2)N2CCC(n3c(=O)[nH]c4ccccc43)CC2)cc1 (stereo not drawn) | inactive: 6.53% |
| CCCOc1ccc(C(=O)NCC2(N(C)C)CCCCC2)cc1OC | inactive: 15% |
| Cc1ccc(C(=O)NCC2(N(C)C)CCCCC2)o1 | inactive: -1.06% |
| CCC(c1nnnn1C1CCCC1)N1CCC(n2c(=O)[nH]c3ccccc32)CC1 (stereo not drawn) | inactive: -1.14% |
| COc1ccc(C(=O)NCC2(N3CCCCC3)CCCCC2)c(OC)c1OC | inactive: -5.04% |
| CC(C)(C)OC(=O)N1CCC(N(C(=O)c2ccccc2)c2ccc(F)cc2)CC1 | inactive: 24.2% |
| COc1ccc(C(=O)NCC2(N3CCCCC3)CCCCC2)cc1 | inactive: 6.82% |
| CCCCn1nnnc1C(c1cccs1)N1CCC(n2c(=O)[nH]c3ccccc32)CC1 (stereo not drawn) | inactive: -1.67% |
| CCCCn1nnnc1C(CC)N1CCC(n2c(=O)[nH]c3ccccc32)CC1 (stereo not drawn) | inactive: 4.33% |
| O=C(NCC1(N2CCCCC2)CCCCC1)c1cccs1 | inactive: 4.68% |
| O=C(NCC1(N2CCCCC2)CCCCC1)c1ccc(=O)[nH]c1 | inactive: 17.8% |
| Cc1cccc(NC2(C#N)CCN(Cc3ccccc3)CC2)c1 | inactive: -0.26% |
| CSc1ccccc1C(=O)NCC1(N2CCCCC2)CCCCC1 | inactive: 3.16% |
| Cc1cc(C)cc(N(C(=O)c2ccccc2)C2CCN(C(=O)OC(C)(C)C)CC2)c1 | inactive: 12.3% |
| O=c1[nH]c2ccccc2n1C1CCN(C(c2ccccc2OC(F)(F)F)c2nnnn2C2CCCCC2)CC1 (stereo not drawn) | inactive: 2.62% |
| O=C(NCC1(N2CCCCC2)CCCCC1)c1ccc(Cl)nc1 | inactive: 12.4% |
| O=C(NCC1(N2CCOCC2)CCCCC1)c1cc2ccccc2o1 | inactive: 14.8% |
| COc1ccc(Cl)cc1C(=O)NCC1(N2CCOCC2)CCCCC1 | inactive: 7.04% |
| O=C(OC1CN2CCC1CC2)C1c2ccccc2Oc2ccccc21 (stereo not drawn) | inactive: 17.6% |
| O=c1[nH]c2ccccc2n1C1CCN(C(c2cc3ccccc3o2)c2nnnn2C2CCCCC2)CC1 (stereo not drawn) | inactive: 12.1% |

| Structure (SMILES) | activation |
| --- | --- |
| N#CC1(Nc2ccccc2)CCN(Cc2ccccc2)CC1 | inactive: 19% |
| O=C(NCC1(N2CCCCC2)CCCCC1)c1ccc(Cl)s1 | inactive: -0.36% |
| CCCCn1nnnc1C(c1ccc(OC)cc1)N1CCC(n2c(=O)[nH]c3ccccc32)CC1 (stereo not drawn) | inactive: 18.4% |
| CCOC(=O)N1CCC(Nc2ccc(OC)cc2)CC1 | inactive: 21.4% |
| O=C1CCN(Cc2ccccc2)CC1 | inactive: 18.4% |
| CC(C)(C)n1nnnc1C(c1ccccc1)N1CCC(n2c(=O)[nH]c3ccccc32)CC1 (stereo not drawn) | inactive: 8.14% |
| CCOc1ccc(C)cc1CN(CCCl)CCCl | inactive: -1.49% |
| COc1ccc(NC2CCN(CCc3ccccc3)CC2)c(OC)c1 | inactive: 11.8% |
| CCOC(=O)N1CCC(Nc2ccc(F)cc2)CC1 | inactive: 12.6% |
| O=C(NCC1(N2CCCCC2)CCCCC1)c1ccc(F)cc1 | inactive: -8.22% |
| O=P1(N(CCCl)CCCl)SCCCS1 | inactive: 7.98% |
| CCCCn1nnnc1C(c1cc2ccccc2o1)N1CCC(n2c(=O)[nH]c3ccccc32)CC1 (stereo not drawn) | inactive: 20.2% |
| CCCCOc1ccc(C(=O)NCC2(N3CCOCC3)CCCCC2)cc1 | inactive: 7.21% |
| O=c1[nH]c2ccccc2n1C1CCN(C(c2ccccc2)c2nnnn2C2CCCCC2)CC1 (stereo not drawn) | inactive: 8% |
| COc1cc(C(=O)NCC2(N(C)C)CCCCC2)ccc1OC(F)F | inactive: -10.6% |
| CCOC(=O)N1CCC(Nc2cccc(C)c2)CC1 | inactive: 7.76% |
| O=c1[nH]c2ccccc2n1C1CCN(C(c2cccc3ccccc23)c2nnnn2C2CCCC2)CC1 (stereo not drawn) | inactive: 2.37% |
| CCC(c1nnnn1C1CCCCC1)N1CCC(n2c(=O)[nH]c3ccccc32)CC1 (stereo not drawn) | inactive: 10.6% |
| CC(=O)N(c1ccccc1)C1CCNCC1 | inactive: 10.5% |
| COc1cccc(C(c2nnnn2C2CCCCC2)N2CCC(n3c(=O)[nH]c4ccccc43)CC2)c1OC (stereo not drawn) | inactive: -8.7% |
| O=c1[nH]c2ccccc2n1C1CCN(C(c2ccnc3ccccc23)c2nnnn2C2CCCCC2)CC1 (stereo not drawn) | inactive: 16.8% |
| COc1cc(OC)cc(C(=O)NCC2(N3CCCCC3)CCCCC2)c1 | inactive: 16% |

| Structure (SMILES) | activation |
| --- | --- |
| Fc1ccccc1NC1CCN(Cc2ccccc2)CC1 | inactive: 3.54% |
| Cc1ccc(C(=O)NCC2(N3CCCCC3)CCCCC2)o1 | inactive: 6.15% |
| Cc1ccc(NC2(C#N)CCN(Cc3ccccc3)CC2)cc1 | inactive: 10.5% |
| CC(C)(C)n1nnnc1C(c1ccnc2ccccc12)N1CCC(n2c(=O)[nH]c3ccccc32)CC1 (stereo not drawn) | inactive: 11.8% |
| COc1ccc(C(c2nnnn2C2CCCCC2)N2CCC(n3c(=O)[nH]c4ccccc43)CC2)cc1 (stereo not drawn) | inactive: 11% |
| CCN1CCC(Nc2cccc(F)c2)CC1 | inactive: 0.95% |
| Cc1ccccc1NC1(C#N)CCN(Cc2ccccc2)CC1 | inactive: 17.8% |
| Cn1c(=O)[nH]cc(N(CCCl)CCCl)c1=O | inactive: -3.52% |
| CN(C)c1ccc(C(=O)NCC2(N3CCCCC3)CCCCC2)cc1 | inactive: 24.4% |
| O=C(NCC1(N2CCCCC2)CCCCC1)c1ccco1 | inactive: 3.71% |
| CN1CCC(Nc2ccc(F)c(Cl)c2)CC1 | inactive: 11.3% |
| CCOc1ncccc1C(=O)NCC1(N2CCOCC2)CCCCC1 | inactive: 13.8% |
| O=C(O)C1(Nc2ccccc2)CCN(Cc2ccccc2)CC1 | inactive: 13.8% |
| NN(c1ccccc1)C1CCN(CCc2ccccc2)CC1 | inactive: -3.52% |
| CC(C)(C)OC(=O)N1CCC(Nc2ccccc2)CC1 | inactive: 9.45% |
| CCCOc1ccc(C(=O)NCC2(N(C)C)CCCCC2)cc1 | inactive: 2.19% |
| O=c1[nH]c2ccccc2n1C1CCN(C(c2cc3ccccc3o2)c2nnnn2C2CCCC2)CC1 (stereo not drawn) | inactive: 36% |
| COc1cccc(C(c2nnnn2C2CCCC2)N2CCC(n3c(=O)[nH]c4ccccc43)CC2)c1OC (stereo not drawn) | inactive: 15.2% |
| COc1cc(OC)cc(C(=O)NCC2(N3CCOCC3)CCCCC2)c1 | inactive: 10.1% |
| COc1cccc(C(=O)N(c2cc(C)cc(C)c2)C2CCN(C(=O)OC(C)(C)C)CC2)c1 | inactive: -8.22% |
| CCC(CO)(C(=O)OC1CN2CCC1CC2)c1ccccc1 (stereo not drawn) | inactive: -4.39% |
| CN1CCC(Nc2ccc(Cl)cc2)CC1 | inactive: 8.19% |

| Structure (SMILES) | activation |
| --- | --- |
| COc1cc(C(=O)NCC2(N3CCOCC3)CCCCC2)cc(OC)c1C | inactive: -9.5% |
| CCCCn1nnnc1C(c1ccccc1)N1CCC(n2c(=O)[nH]c3ccccc32)CC1 (stereo not drawn) | inactive: 13.9% |
| O=C(NCC1(N2CCOCC2)CCCCC1)c1cc(Br)ccc1Cl | inactive: -0.27% |
| O=c1[nH]c2ccccc2n1C1CCN(C(c2cccs2)c2nnnn2C2CCCCC2)CC1 (stereo not drawn) | inactive: 14.4% |
| O=c1[nH]c2ccccc2n1C1CCN(C(c2ccnc3ccccc23)c2nnnn2C2CCCC2)CC1 (stereo not drawn) | inactive: 13.2% |
| COc1ccc(C(=O)NCC2(N3CCOCC3)CCCCC2)cc1OC | inactive: -9.77% |
| COc1cccc(C(c2nnnn2C(C)(C)C)N2CCC(n3c(=O)[nH]c4ccccc43)CC2)c1OC (stereo not drawn) | inactive: -10.8% |
| CCOC(=O)N1CCC(Nc2ccc(C)cc2)CC1 | inactive: -26.6% |
| N/C(=N\O)c1c(N)no[n+]1[O-] | inactive: 14.2% |
| O=c1[nH]c2ccccc2n1C1CCN(C(c2cccs2)c2nnnn2C2CCCC2)CC1 (stereo not drawn) | inactive: 2.69% |
| O=C(OC1CN2CCC1CC2)C1c2ccccc2C=Cc2ccccc21 (stereo not drawn) | inactive: 8.89% |
| CCCCn1nnnc1C(c1cccc(OC)c1OC)N1CCC(n2c(=O)[nH]c3ccccc32)CC1 (stereo not drawn) | inactive: 0.96% |
| N#Cc1ccc(C(=O)NCC2(N3CCCCC3)CCCCC2)cc1 | inactive: -9.16% |
| CC(C)(C)OC(=O)N1CCC(N(C(=O)c2ccccc2)c2ccc(Cl)cc2)CC1 | inactive: 8.78% |
| CN(C)C1(CNC(=O)c2cccc(C#N)c2)CCCCC1 | inactive: 17.8% |
| CCCN1CCC(Nc2cc(OC)cc(OC)c2)CC1 | inactive: 12.8% |
| O=c1[nH]c2ccccc2n1C1CCN(C(c2ccccc2)c2nnnn2C2CCCC2)CC1 (stereo not drawn) | inactive: 28% |
| Cc1cc(N(CCCl)CCCl)ccc1C=O | inactive: 11.4% |
| c1ccc(CN2CCC(Nc3ccccc3)CC2)cc1 | inactive: 16.8% |
| CC(C)(C)n1nnnc1C(c1cccc2ccccc12)N1CCC(n2c(=O)[nH]c3ccccc32)CC1 (stereo not drawn) | inactive: 22.6% |
